Data taken from article PMC6332508, “A Promising PET Tracer for Imaging of α7 Nicotinic Acetylcholine Receptors in the Brain: Design, Synthesis, and in Vivo Evaluation of a Dibenzothiophene-Based Radioligand” (Molecules, 2015).

Chains of the proteins cited; added tags and fusions are not shown. Residues count along the entry.
UniProt P36544, 23-502: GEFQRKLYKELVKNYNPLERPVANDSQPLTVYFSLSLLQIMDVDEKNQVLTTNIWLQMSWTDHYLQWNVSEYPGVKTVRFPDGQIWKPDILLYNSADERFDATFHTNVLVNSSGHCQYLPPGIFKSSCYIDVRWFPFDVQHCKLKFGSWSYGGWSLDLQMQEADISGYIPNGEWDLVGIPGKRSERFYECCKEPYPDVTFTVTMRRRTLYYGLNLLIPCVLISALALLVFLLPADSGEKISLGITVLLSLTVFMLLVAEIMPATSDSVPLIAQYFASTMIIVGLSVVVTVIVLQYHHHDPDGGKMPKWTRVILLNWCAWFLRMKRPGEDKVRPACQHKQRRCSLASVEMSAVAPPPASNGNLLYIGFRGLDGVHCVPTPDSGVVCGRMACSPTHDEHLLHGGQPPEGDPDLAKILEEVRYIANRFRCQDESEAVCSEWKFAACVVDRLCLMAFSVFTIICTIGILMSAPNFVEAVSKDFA

Target: T1, human α7 nAChR (Homo sapiens, UniProt P36544)
T1 construct: expressed in transfected cells; host or cells: SH-SY5Y
Test: Radioligand displacement at human α7 nAChR, [3H]methyllycaconitine, SH-SY5Y cells
Format: binding
Settings: stably transfected SH-SY5Y cells, read-out: Affinity (Ki in nM) hα7

For O=S1(=O)c2cc(N3CCN4CCC3CC4)ccc2-c2cccc(F)c21 [Compound 10b, 3-(1,4-Diazabicyclo[3.2.2]nonan-4-yl)-6-fluorodibenzo[b,d]thiophene 5,5-dioxide], which Ki is on record?
The Ki was 0.84 ± 0.16 nM.
